The source of these data is publication PMC4012456 (Marine Drugs, 2014).

The chains behind the UniProt entries cited, without tags or fusion partners. Residues count along the entry.
UniProt P02710, 25-461 limits assumed: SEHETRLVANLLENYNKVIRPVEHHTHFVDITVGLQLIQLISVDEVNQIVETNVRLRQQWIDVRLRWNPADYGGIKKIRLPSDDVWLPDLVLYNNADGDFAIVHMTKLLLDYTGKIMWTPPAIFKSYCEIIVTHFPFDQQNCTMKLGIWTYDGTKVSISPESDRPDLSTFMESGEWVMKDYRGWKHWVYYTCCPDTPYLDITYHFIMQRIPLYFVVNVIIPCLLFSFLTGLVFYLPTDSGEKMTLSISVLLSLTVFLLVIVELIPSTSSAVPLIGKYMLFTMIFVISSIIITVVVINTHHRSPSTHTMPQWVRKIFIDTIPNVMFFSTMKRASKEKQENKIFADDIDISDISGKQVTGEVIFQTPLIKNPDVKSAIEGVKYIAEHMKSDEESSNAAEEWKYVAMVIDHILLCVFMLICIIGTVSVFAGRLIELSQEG
UniProt P02712, 25-493 limits assumed: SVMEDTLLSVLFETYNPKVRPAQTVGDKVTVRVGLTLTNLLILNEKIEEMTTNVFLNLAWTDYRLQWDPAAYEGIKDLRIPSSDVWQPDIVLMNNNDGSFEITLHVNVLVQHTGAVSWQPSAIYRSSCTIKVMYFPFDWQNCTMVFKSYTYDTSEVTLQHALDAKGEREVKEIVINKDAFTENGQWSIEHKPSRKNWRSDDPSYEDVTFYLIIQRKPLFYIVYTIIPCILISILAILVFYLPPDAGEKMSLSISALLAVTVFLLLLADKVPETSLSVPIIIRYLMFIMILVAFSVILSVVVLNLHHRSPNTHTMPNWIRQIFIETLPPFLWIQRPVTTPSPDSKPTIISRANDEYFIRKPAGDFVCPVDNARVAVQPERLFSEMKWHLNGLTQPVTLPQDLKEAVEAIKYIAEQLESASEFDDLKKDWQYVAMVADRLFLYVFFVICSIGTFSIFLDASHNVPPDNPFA
UniProt P02714, 18-506 limits assumed: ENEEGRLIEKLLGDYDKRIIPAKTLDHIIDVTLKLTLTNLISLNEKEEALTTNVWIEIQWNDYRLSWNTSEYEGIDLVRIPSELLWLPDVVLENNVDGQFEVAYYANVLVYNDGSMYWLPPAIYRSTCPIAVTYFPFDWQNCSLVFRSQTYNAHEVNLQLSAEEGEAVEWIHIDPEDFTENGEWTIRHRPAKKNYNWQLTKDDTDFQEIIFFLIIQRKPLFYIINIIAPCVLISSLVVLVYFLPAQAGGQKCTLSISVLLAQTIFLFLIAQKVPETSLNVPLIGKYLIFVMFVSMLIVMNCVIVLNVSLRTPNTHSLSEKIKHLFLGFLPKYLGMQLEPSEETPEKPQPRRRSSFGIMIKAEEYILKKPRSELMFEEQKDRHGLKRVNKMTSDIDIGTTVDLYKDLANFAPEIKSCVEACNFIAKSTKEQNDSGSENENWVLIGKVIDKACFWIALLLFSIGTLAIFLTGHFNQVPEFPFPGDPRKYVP
UniProt P02718, 22-522 limits assumed: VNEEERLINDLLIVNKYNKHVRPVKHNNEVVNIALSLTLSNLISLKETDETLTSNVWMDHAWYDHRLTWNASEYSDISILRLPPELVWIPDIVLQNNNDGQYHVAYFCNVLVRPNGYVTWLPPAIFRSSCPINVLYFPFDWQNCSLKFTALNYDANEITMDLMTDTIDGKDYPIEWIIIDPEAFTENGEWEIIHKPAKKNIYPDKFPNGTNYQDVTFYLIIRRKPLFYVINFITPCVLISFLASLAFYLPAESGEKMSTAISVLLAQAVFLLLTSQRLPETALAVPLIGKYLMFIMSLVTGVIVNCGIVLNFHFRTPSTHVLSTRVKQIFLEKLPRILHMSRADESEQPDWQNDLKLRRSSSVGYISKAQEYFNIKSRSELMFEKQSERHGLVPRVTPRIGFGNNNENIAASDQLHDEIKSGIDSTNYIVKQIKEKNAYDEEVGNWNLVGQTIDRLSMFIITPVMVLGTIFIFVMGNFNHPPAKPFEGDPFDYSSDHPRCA
UniProt P36544, 23-502 limits assumed: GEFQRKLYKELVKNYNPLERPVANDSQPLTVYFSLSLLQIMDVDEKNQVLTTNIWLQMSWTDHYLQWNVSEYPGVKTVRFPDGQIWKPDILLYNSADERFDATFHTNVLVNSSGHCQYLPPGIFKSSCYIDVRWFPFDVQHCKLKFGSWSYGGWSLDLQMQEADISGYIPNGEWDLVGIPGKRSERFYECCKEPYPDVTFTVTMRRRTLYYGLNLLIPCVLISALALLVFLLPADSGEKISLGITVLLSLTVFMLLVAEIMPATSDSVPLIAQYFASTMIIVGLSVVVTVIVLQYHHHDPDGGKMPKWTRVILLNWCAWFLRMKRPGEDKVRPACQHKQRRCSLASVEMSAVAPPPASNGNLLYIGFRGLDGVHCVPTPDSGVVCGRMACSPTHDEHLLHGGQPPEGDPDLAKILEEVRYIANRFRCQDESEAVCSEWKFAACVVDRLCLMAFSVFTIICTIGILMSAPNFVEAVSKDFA
UniProt P58154, 20-229 limits assumed: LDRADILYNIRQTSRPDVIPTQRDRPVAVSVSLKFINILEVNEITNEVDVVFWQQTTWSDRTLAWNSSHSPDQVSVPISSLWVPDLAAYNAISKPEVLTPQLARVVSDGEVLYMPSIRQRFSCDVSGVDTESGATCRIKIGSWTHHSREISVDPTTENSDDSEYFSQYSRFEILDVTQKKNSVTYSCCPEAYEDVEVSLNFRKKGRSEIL

Several values for one entry are separate records, joined by “and”; a condition that tells them apart may be missing. Equal entries are not always repeated. Structures can show the parent of a compound that is named as a salt.

The target in assay [1] is muscle-type nAChR from T. californica (Tetronarce californica, UniProt P02710+P02712+P02714+P02718). Briefly: radioligand assay, competition with [125I]-αBgt for binding to Torpedo nAChR. Particulars: for preference for muscle-type (T. californica) nAChR over human α7 nAChR: in competition with [125I]-αBgt; for Ki: read-out: Ki Values on T. californica nAChR, competition with [125I]-αBgt, electric organ membranes, Cheng-Prusoff, mean ± s.e.m.

Another assay concerns the target human neuronal α7 nAChR (Homo sapiens, UniProt P36544). Briefly: radioligand assay, competition with [125I]-αBgt for binding to α7 nAChR in GH4C1 cells. Particulars: read-out: Ki Values on human α7 nAChR, Cheng-Prusoff, mean ± s.e.m.
The target of the next assay is L. stagnalis AChBP (Lymnaea stagnalis, UniProt P58154). Briefly: radioligand assay, competition with [125I]-αBgt for binding to AChBP. Particulars: read-out: Experimental Ki values at interaction with L. stagnalis AChBP from radioligand assay, IC50 converted by Cheng-Prusoff, mean ± s.e.m.

For `CC[C@@H]1C=CCC[C@]2(C[C@H]3CC[C@H]4C[C@@]5(CCC[C@H](C)O5)NC(=N2)N34)O1` [listing 1 of 2 here], in assay [1], the “preference for muscle-type (T. californica) nAChR over human α7 nAChR” value is reported as “twenty-fold”.

Turning to `Cn1c(=N)c2nc[nH]c2n(C)c1=O`, the Ki (usually a measure of affinity in units of concentration, obtained from inhibition or displacement) is not below 1000 µM at human neuronal α7 nAChR, not below 1000 µM in assay [1] and more than 1000 µM at L. stagnalis AChBP.

Turning to `CC[C@@H]1C=CCC[C@]2(C[C@H]3CC[C@H]4C[C@@]5(CCC[C@H](C)O5)NC(=N2)N34)O1` [listing 2 of 2 here], the Ki at human neuronal α7 nAChR turned out to be 310 µM; in assay [1] it was 17 µM; at L. stagnalis AChBP, 27 µM.

In the case of `C[C@@H](N)[C@H](O)CCCCCCCC(=O)CCCCCCCCCCCCCC[C@@H](O[C@@H]1O[C@H](CO)[C@H](O)[C@H](O)[C@H]1O)[C@@H](C)N` [Compound 1, Rhizochalin], the Ki on human neuronal α7 nAChR is 20 to 60 µM and 33 µM; in assay [1] it was 20 to 60 µM and 22 µM; on L. stagnalis AChBP, 28 µM.

`C[C@@H](N)[C@H](O)CCCCCCCCCCCCCCC(=O)CCCCCCC[C@@H](O)[C@@H](C)N` [Compound 2, aglycone of rhizochalin]: the Ki is 20 to 60 µM and 24 µM in assay [1]; 130 µM on L. stagnalis AChBP.

As for `C[C@@H]1C[C@@H]2c3cccc4[nH]c(Br)c(c34)C[C@H]2N(C)C1` [Compound 3, pibocin], the Ki on human neuronal α7 nAChR came out at 130 µM; in assay [1], 44 µM; on L. stagnalis AChBP it was 0.83 µM.

Regarding `COc1cc(CCN)c2c(c1OC)SSSSS2` [Compound 4, Varacin], the Ki on human neuronal α7 nAChR worked out at 19 µM; in assay [1] it was 10 µM; at L. stagnalis AChBP it was 0.79 µM.

For `C[N+]1=C2C=C(N)C(=O)c3[nH]cc(c32)CC1` [Compound 5, makaluvamine C], the Ki is 3.6 µM on human neuronal α7 nAChR, 1.3 µM in assay [1] and 1.3 µM at L. stagnalis AChBP.

For `Cn1cc2c3c1C(=O)C(N/C=C/c1ccc(O)cc1)=CC3=[N+](C)CC2` [Compound 6, makaluvamine G], the Ki on human neuronal α7 nAChR was determined as 18 µM; in assay [1], 1.6 µM; on L. stagnalis AChBP it was 0.55 µM. Moreover, the “preference for muscle-type (T. californica) nAChR over human α7 nAChR” value in assay [1] was “ten-fold”.

In the case of `NC1=N/C(=C2/CCNC(=O)c3[nH]ccc32)C(=O)N1` [Compound 7, Debromohymenialdesine], the results for the Ki (on human neuronal α7 nAChR; in assay [1]; at L. stagnalis AChBP) were not below 1000 µM, not below 1000 µM and more than 1000 µM, respectively.

In the case of `C[n+]1ccccc1-c1cccc[n+]1C` [Compound 8, 1,1′-Dimethyl-[2,2′]-bipyridyldiium salt], the Ki was not below 1000 µM at human neuronal α7 nAChR, not below 1000 µM in assay [1] and 540 µM at L. stagnalis AChBP.

Take `O=C1NCCc2cncn21` [Compound 10, 7,8-Dihydroimidazo-[1,5-c]-pyrimidin-5(6H)-one]: the Ki at human neuronal α7 nAChR was not below 1000 µM; in assay [1], not below 1000 µM; on L. stagnalis AChBP, more than 1000 µM.

As for `COc1cc2ccnc3c2c(c1OC)NC=C3` [Compound 12, Aaptamine], the Ki at human neuronal α7 nAChR was 120 µM; in assay [1], 34 µM; at L. stagnalis AChBP it was 3 µM.

As for `CC/C=C/[C@@H]1CC[C@]2(C[C@H]3CC[C@H]4[C@@H](C(=O)OC(CC)CCCCCCCCCCCCC[C@@H]5O[C@](O)(CCN)[C@H](O)N(CCCN)C5=O)[C@@]5(CCC[C@H](C)O5)NC(=N2)N34)O1` (stereo partly shown) [Compound 13, monanchocidin], the results for the Ki (on human neuronal α7 nAChR; in assay [1]; on L. stagnalis AChBP) were 38 µM, 8 µM and 2.5 µM, respectively.
